How the values were obtained:
[1] = molecular target: KPC-3^D179Y/T243M (Klebsiella pneumoniae, UniProt Q9F663, D178Y/H272Y/T242M); assay: β-lactam hydrolysis kinetics, purified KPC-3 D179Y/T243M; type: biochemical; details: substrate hydrolysis by KPC-3 D179Y/T243M
Procedure: (§1) Measurements to determine kinetic parameters for hydrolysis, and kinetic parameters for inhibition were performed at ambient temperature in PBS (pH 7.4) containing 0.1 mg/mL bovine serum albumin, using a PowerWaveXS plate reader (BioTek).
(§2) Assays to determine Michaelis-Menten kinetic parameters were performed by mixing variable amounts of enzymes (depending on the enzyme-substrate pair), with serial dilutions of different BL substrates and continuously monitoring the reduction in absorbance associated with BL hydrolysis ([28], [36], [40], [41]). Kinetic parameters were determined by plotting initial rates of hydrolysis (v) as a function of substrate concentration [S] and fitting the data to equation 1 using GraphPad Prism,
(§3) (1) v=[Et]×kcat×[S]/KM+[S]
(§4) where [Et] is the enzyme concentration, kcat the turnover number and KM the Michaelis constant.

Chains of the proteins cited; added tags and fusions are not shown. Residues count along the entry.
UniProt Q9F663, 27-293 D178Y/T242M/H272Y: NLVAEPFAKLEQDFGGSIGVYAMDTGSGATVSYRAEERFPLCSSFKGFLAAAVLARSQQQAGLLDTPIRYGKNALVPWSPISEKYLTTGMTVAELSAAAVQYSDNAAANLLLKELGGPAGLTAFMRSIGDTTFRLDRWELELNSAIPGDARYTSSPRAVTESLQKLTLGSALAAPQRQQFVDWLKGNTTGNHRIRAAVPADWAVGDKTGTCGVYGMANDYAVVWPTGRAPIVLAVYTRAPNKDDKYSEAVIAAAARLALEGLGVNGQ
UniProt Q9F663, 27-293 D178Y/H272Y: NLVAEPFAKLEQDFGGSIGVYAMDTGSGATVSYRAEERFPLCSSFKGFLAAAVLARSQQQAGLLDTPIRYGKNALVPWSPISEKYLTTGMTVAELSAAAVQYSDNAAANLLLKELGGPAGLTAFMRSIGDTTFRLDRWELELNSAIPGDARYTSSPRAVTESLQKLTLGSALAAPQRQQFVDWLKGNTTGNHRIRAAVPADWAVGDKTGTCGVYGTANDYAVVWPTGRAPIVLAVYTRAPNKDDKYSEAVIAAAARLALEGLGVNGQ
UniProt Q9F663, 27-293 H272Y: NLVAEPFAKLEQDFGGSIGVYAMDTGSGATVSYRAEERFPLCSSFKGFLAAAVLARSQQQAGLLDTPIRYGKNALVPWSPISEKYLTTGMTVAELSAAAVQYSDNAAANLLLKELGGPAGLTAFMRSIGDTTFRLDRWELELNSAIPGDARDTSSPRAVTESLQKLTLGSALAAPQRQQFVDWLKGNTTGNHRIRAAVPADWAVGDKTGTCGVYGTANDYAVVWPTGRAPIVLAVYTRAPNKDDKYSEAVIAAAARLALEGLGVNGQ
UniProt Q9F663, 27-293 V239G/H272Y: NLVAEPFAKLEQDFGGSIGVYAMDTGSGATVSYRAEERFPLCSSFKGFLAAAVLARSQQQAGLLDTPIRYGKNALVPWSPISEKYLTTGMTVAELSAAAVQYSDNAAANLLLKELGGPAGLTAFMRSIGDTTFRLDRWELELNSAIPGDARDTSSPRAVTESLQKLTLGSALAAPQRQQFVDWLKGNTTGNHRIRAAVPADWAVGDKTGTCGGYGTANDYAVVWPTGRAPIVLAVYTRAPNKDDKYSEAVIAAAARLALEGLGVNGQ
UniProt Q9F663, 25-293 D178Y: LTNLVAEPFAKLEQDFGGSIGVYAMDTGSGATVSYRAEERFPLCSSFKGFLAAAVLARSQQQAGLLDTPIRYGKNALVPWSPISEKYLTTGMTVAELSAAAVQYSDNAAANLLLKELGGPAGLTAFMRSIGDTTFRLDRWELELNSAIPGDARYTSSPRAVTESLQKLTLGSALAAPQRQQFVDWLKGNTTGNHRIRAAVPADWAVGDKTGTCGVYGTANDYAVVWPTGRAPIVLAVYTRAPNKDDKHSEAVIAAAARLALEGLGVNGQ
UniProt Q9F663, 25-293 V239G: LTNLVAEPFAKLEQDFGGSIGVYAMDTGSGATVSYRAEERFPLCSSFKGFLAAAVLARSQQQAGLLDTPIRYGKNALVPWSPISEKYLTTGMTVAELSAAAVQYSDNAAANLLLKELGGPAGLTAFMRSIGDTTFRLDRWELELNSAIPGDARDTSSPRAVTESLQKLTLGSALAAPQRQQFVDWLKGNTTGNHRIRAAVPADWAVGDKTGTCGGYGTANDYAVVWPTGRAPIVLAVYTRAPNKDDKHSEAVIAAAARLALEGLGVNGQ
UniProt Q9F663, 25-293 D178Y/T242M: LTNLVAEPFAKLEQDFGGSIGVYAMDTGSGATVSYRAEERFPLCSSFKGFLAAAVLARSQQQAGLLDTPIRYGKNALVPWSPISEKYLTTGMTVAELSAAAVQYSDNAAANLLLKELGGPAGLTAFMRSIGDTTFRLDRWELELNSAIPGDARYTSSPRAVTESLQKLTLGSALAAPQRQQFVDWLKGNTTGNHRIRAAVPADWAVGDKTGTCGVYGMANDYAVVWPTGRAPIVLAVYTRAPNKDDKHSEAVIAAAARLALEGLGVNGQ

[2] = molecular target: KPC-3^D179Y (Klebsiella pneumoniae, UniProt Q9F663, D178Y/H272Y); assay: β-lactam hydrolysis kinetics, purified KPC-3 D179Y; type: biochemical; details: substrate hydrolysis by KPC-3 D179Y
Procedure: as §1, §2, §3, §4

[3] = molecular target: KPC-3 WT (Klebsiella pneumoniae, UniProt Q9F663, H272Y); type: biochemical; details: substrate hydrolysis by KPC-3 WT
[4] = molecular target: KPC-3^V240G (Klebsiella pneumoniae, UniProt Q9F663, H272Y/V239G); type: biochemical
[5] = molecular target: KPC-2^D179Y (Klebsiella pneumoniae, UniProt Q9F663, D178Y); assay: β-lactam hydrolysis kinetics, purified KPC-2 D179Y; type: biochemical; details: substrate hydrolysis by KPC-2 D179Y
Procedure: as §1, §2, §3, §4

[6] = molecular target: KPC-2^V240G (Klebsiella pneumoniae, UniProt Q9F663, V239G); type: biochemical
[7] = molecular target: KPC-2^D179Y/T243M (Klebsiella pneumoniae, UniProt Q9F663, D178Y/T242M); assay: β-lactam hydrolysis kinetics, purified KPC-2 D179Y/T243M; type: biochemical; details: substrate hydrolysis by KPC-2 D179Y/T243M
Procedure: as §1, §2, §3, §4

[8] = test system: D179Y-containing KPC-3 variants; type: biochemical, Klebsiella pneumoniae
[9] = test system: wild-type KPC-2 and KPC-3 enzymes; type: biochemical, Klebsiella pneumoniae
[10] = molecular target: KPC-2 D179Y-containing variants (Klebsiella pneumoniae, UniProt Q9F663, D178Y); type: biochemical

SMILES	Km [1] [µM]	Km [2] [µM]	Km [3] [µM]	Km [4] [µM]	Km [5] [µM]	kcat [5]	Km [6] [µM]	Km [7] [µM]	kcat [7]	CTB conversion [8]	time for CTB hydrolysis to near completion [9]	time for CTB hydrolysis to near completion [10]
CC(C)(O/N=C(\C(=O)N[C@@H]1C(=O)N2C(C(=O)[O-])=C(C[n+]3ccccc3)CS[C@H]12)c1csc(N)n1)C(=O)O [CAZ, ceftazidime]	14.6 ± 4.1	15.5 ± 4.7	> 500	> 500	0.6 ± 0.09	(1.2 ± 0.04) × 10^−3 s^−1	> 500	1 ± 0.2	(3.7 ± 0.13) × 10^−3 s^−1	–	–	–
Nc1nc(/C(=C/CC(=O)O)C(=O)N[C@@H]2C(=O)N3C(C(=O)O)=CCS[C@H]23)cs1 [CTB, ceftibuten]	–	–	–	–	–	–	–	–	–	30 – 40%	within five minutes	~ 50 minutes
